Test system: pBR322 DNA
Assay: DNA Cross-Linking Assay (agarose gel)
Format: biochemical
Details: vs 1.0 and 2.0 μM mechlorethamine, 5.0 and 10.0 μM melphalan

**Q.** How did the “cross-linking concentration compared with mechlorethamine and melphalan” value turn out when `C(CCNCCCN1CC1)CNCCCN1CC1` [Synthesis Example 1, 1,12-Diaziridinyl-4,9-diazadodecane] was run?
**A.** Its value is “lower than that required for the two nitrogen mustard drugs, mechlorethamine and melphalan, to cross-link DNA”.

From patent US5612329A (priority 1995, dated 1997)
